Earlier results in publication PMC6161897, “The novel NADPH oxidase 4 selective inhibitor GLX7013114 counteracts human islet cell death in vitro” (PLoS ONE, 2018).

Molecular target: T1, Nox1 (Homo sapiens, UniProt Q9Y5S8)
T1 construct: host or cells: CHO
T1 sequence (Q9Y5S8 1-564): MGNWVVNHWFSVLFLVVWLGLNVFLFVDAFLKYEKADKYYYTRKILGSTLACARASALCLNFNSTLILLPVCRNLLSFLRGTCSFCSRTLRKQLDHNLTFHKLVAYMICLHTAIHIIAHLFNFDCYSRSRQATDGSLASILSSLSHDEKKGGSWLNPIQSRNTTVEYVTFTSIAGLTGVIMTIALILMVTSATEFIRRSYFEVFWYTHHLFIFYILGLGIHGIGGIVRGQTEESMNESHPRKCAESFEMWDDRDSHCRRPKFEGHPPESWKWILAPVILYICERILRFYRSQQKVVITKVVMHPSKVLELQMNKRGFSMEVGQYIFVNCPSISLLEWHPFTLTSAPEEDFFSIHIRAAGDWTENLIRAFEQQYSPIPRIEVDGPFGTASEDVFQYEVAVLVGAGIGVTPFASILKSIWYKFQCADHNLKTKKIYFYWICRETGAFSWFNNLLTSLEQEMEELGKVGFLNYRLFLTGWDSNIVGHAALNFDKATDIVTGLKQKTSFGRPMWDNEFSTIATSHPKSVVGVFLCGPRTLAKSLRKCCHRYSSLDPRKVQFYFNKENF
T1 sequence (P13498 2-195 partner limits assumed): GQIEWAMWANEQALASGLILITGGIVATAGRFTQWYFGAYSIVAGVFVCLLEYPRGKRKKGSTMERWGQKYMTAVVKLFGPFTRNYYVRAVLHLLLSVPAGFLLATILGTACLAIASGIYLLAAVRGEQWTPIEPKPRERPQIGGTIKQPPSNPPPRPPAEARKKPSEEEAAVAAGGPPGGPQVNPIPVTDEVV
Details: read-out: Nox1 IC50; cited from earlier work

c1ccc2c(c1)[I+]c1ccccc1-2 [DPI, diphenyleneiodoniumchloride]
IC50: 200 nM
